# Ab-14 light chain CDR variants: yeast mating affinities

Antigen: PDVDLGDISGINAS, a 14-residue peptide of the SARS-CoV-2 spike HR2 region.

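The starting antibody came from a phage panning campaign against this peptide. Variants in AAYL50 differ from the parent at up to three CDR positions; double and triple changes were sampled at random. In AlphaSeq, yeast of one mating type display the scFv and yeast of the other type display the target. Mating (16 h, 30 °C) was followed by selection of diploids and sequencing of their barcodes. Each replicate has its own calibration line, from reference interactions of the BCL2 family. Each pool was mated in three replicate cultures.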

The variants keep the heavy chain, the linker and the frameworks of Ab-14 (scFv order VH, a 15-residue (Gly4Ser)3 linker, VL).
VH: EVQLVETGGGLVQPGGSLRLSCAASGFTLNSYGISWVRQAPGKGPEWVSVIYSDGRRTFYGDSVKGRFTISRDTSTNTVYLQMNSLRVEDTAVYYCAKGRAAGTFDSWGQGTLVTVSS
VL: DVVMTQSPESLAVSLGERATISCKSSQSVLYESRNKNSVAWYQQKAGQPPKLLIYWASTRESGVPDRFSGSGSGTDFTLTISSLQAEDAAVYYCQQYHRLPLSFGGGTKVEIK

Each variant is given by its three light chain CDRs, as the data file delimits them; those of the parent are KSSQSVLYESRNKNSVA, WASTRES, QQYHRLPLS.
Scale: log10 of Kd in nM, estimated from mating counts; low values are strong binders.
"nd" marks a missing value. The strain was present, yet no cells mated with the target were sequenced in that replicate, which points to weak or no binding.
As a blank, each scFv also met three strains without target: over library AAYL50, 18% of these pairings were detected, typically at 4.19 and seldom below 2.99. Also given: how often the same scFv was detected with the empty control strains.
Parent in this assay: reference entry 0.65, copy in this library 1.68.

The variant KSSQPVLYESRNKSSVA | WASTREE | QQYHRLPLS showed 1.90, 1.72, 1.64 (controls 0 of 9).
The variant KSSQSVLYESHNKNAVA | WASTRES | QQYRRLPLS showed 1.04, 1.11, 1.10 (controls 5 of 9).
The variant KSSQSVFYESFNKNSVA | WASTRES | QTYHRLPLS showed 1.20, 1.31, 1.37 (controls 2 of 9).
The variant KSSQWVLYESRNKNSVA | WASLRVS | QQYHRLPLS showed 1.61, 1.60, 1.74 (controls 2 of 9).
The variant KSSQSVLYESMNKNSTA | WLSTRES | QQYHRLPLS showed 3.47, 4.00, 3.97 (controls 4 of 9).
The variant KSPQSVLYESRFKNSVA | WASTRES | QQYHRLPLS showed 1.59, 1.56, 1.77 (controls 1 of 9).
The variant KSSQSVAYESRNKNSVA | WASTREA | QQYHRNPLS showed nd, nd, nd (controls 0 of 9).
The variant KGSQSVLYESANKNSVA | WASTRES | QQYHDLPLS showed 2.42, 1.93, 2.10 (controls 1 of 9).
The variant KSSQSWLQESRNKNSVA | WASTREH | QQYHRLPLS showed 0.62, 0.85, 0.81 (controls 1 of 9).
The variant KSSQSVLYESRNKNSVA | EASTRES | QQYHRLPLS showed -0.39, -0.02, -0.27 (controls 1 of 9).
The variant KSSQSVSYESRNKNSVA | WASFRES | HQYHRLPLS showed 2.93, 2.89, 3.29 (controls 6 of 9).
The variant KSSQSVLYESRNKNSVA | WASTRES | QQYFRLPLC showed 1.28, 2.41, 1.64 (controls 0 of 9).
The variant KSSQSVLYESRNKNSVA | WADTPES | QQAHRLPLS showed 6.10, nd, nd (controls 5 of 9).
The variant KSSQSVLYESRNQTSVA | WASTRES | QQVHRLPLS showed 1.71, 1.79, 1.65 (controls 5 of 9).
The variant KSSQSVLYESRNHNSVA | WASTIER | QQYHRLPLS showed nd, 3.10, nd (controls 4 of 9).
The variant KSSQSDLYESRNKNSHA | WASTRES | QQYMRLPLS showed nd, nd, nd (controls 0 of 9).
The variant ENSQSVLYESRNKNSVA | WASTRES | QQYARLPLS showed 3.39, 2.59, 3.32 (controls 0 of 9).
The variant KSSQSVLYESRNKNSVA | WASTREM | QQCHRLPLC showed 2.35, 2.62, 2.94 (controls 1 of 9).
The variant KSSQSVLYESYNVNSVA | WASYRES | QQYHRLPLS showed 1.18, 1.50, 1.31 (controls 0 of 9).
The variant KSSQSVLYESRMKNSVA | WASCRES | QQYHREPLS showed 1.30, 1.45, 1.51 (controls 3 of 9).
The variant KSSQLVLYEKRNKNSVA | WASTREK | QQYHRLPLS showed 3.14, 2.66, nd (controls 1 of 9).
The variant KSSQSVLDESRNKNSVA | WASTREI | QQYHRLGLS showed 1.49, 1.48, 1.16 (controls 0 of 9).
The variant KSSQSVLYESRNKNSVW | WASTYES | QCYHRLPLS showed 4.13, 4.70, 4.31 (controls 4 of 9).
The variant KSSQSVLYESRNCNSVA | WASTRES | QQYHNVPLS showed 5.21, nd, 4.42 (controls 2 of 9).
The variant KSSQSVLYESLNKNLVA | WASTRES | QTYHRLPLS showed nd, 3.53, nd (controls 3 of 9).
The variant KSSQSVLYESRNKNSVA | WATKRES | QQYHRLPLY showed 1.81, 1.66, 2.66 (controls 0 of 9).
The variant MSSQSVLYESRNKNPVA | LASTRES | QQYHRLPLS showed 3.96, nd, 4.81 (controls 4 of 9).
The variant KSSQSVLYESRNKNSVA | WALTRES | QQYHRLPLE showed nd, 3.61, 3.68 (controls 0 of 9).
The variant QSDQSVLYESRNKNSVA | WASTRES | QNYHRLPLS showed nd, nd, nd (controls 2 of 9).
The variant KSSQSVLYESRNKNSVE | WFSTRES | EQYHRLPLS showed nd, 4.85, nd (controls 2 of 9).
The variant KSSQSVLYESRNKPSVA | WASTREG | QQYHRYPLS showed 4.83, 4.37, 4.40 (controls 6 of 9).
The variant KSSQSVLYTGRNKNSVA | WAFTRES | QQYHRLPLS showed 2.39, 2.51, 2.88 (controls 5 of 9).
The variant KSSQSVLYEARCKNSVA | WASTRES | QQSHRLPLS showed 4.85, 3.75, nd (controls 4 of 9).
The variant KSSQSVLYESRNINSVA | WASTRES | QICHRLPLS showed nd, nd, nd (controls 0 of 9).
The variant KSSQSVLYESRNKNSVA | WASGRAS | QQGHRLPLS showed nd, nd, nd (controls 0 of 9).
The variant YSSQSVLYESRNKNSVA | WASTPES | QQYHRLLLS showed 3.52, 2.67, nd (controls 1 of 9).
The variant KSWQSVLYESKNKNSVA | WASTREK | QQYHRLPLS showed 3.41, 3.16, 3.44 (controls 2 of 9).

For reference, 6 entries of the list once more:

The variant KSSQSVLYTGRNKNSVA | WAFTRES | QQYHRLPLS showed 2.39, 2.51, 2.88 (controls 5 of 9).
The variant KSSQSVLYESMNKNSTA | WLSTRES | QQYHRLPLS showed 3.47, 4.00, 3.97 (controls 4 of 9).
The variant KSSQSVLYESRNKNSVE | WFSTRES | EQYHRLPLS showed nd, 4.85, nd (controls 2 of 9).
The variant KSSQSVLYESYNVNSVA | WASYRES | QQYHRLPLS showed 1.18, 1.50, 1.31 (controls 0 of 9).
The variant ENSQSVLYESRNKNSVA | WASTRES | QQYARLPLS showed 3.39, 2.59, 3.32 (controls 0 of 9).
The variant KSSQSDLYESRNKNSHA | WASTRES | QQYMRLPLS showed nd, nd, nd (controls 0 of 9).

Data: MIT Lincoln Laboratory AlphaSeq set, Engelhart et al. 2022, doi:10.1038/s41597-022-01779-4, as distributed in FLAb.